As a reminder, the IC50 is the concentration at which inhibition is half-maximal. A low value points to higher potency.

Structures are written as SMILES.

This test concerns the target T1, Group 10 secretory phospholipase A2 (Homo sapiens, UniProt O15496).
T1 sequence (O15496 whole entry): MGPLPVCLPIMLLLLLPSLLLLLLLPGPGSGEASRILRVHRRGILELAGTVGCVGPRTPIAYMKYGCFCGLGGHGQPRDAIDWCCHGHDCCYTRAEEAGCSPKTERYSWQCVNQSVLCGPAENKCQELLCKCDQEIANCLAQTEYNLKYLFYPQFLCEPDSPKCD
Description: Inhibition of human sPLA2X using 1,2-bis(heptanoylthio) glycerophosphocholine substrate incubated for 30 mins.

For the compound `CCc1c(C(=O)C(N)=O)c2c(OCC(=O)O)cccc2n1Cc1ccccc1` [VARESPLADIB], the midpoint of inhibition, the IC50, lay at 107 nM.

The record behind these values is ChEMBL document CHEMBL3352519, “Discovery of a novel pyrazole series of group X secreted phospholipase A2 inhibitor (sPLA2X) via fragment based virtual screening” (Bioorg Med Chem Lett, 2014).
